Antibody variant affinities, Ab-14 heavy chain, assay 1

From the AlphaSeq antibody data of Engelhart et al. 2022 (doi:10.1038/s41597-022-01779-4), copy in the FLAb collection.

Antigen: PDVDLGDISGINAS, a 14-residue peptide of the SARS-CoV-2 spike HR2 region.

Ab-14 is the parent antibody, in scFv form: VH, then a (GGGGS)3 linker, then VL. The light chain is unchanged in all variants.
VH: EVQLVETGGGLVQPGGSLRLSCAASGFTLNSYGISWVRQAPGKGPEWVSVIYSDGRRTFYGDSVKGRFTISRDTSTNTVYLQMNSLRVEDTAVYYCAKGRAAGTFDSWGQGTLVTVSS
VL: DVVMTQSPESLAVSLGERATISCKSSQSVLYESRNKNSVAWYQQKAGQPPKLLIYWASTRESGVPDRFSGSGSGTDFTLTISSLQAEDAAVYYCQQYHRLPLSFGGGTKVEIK

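The starting antibody came from a phage panning campaign against this peptide. In library AAYL49, one, two or three CDR residues were substituted; doubles and triples were drawn at random. AlphaSeq pools MATa yeast showing the antibodies with MATalpha yeast showing the peptide. Binding brings cells together so that they mate, and sequencing counts the barcode pairs among the diploids. Scores were corrected for input abundance and mapped to Kd with protein pairs of known affinity run in the same pool. The assay was run in three technical replicates.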

Changes read parent residue, position, new residue, counted from the first residue of the VH shown.
The Kd shown is the geometric mean over detected replicates; a lower Kd is a better binder.
"no signal" marks a missing value. The strain was present, yet no cells mated with the target were sequenced in any replicate, which points to weak or no binding.

changes	Kd (apparent)	detected	control signals
T28P+I34L+V64T	no signal	0 of 3	0 of 9
Y32R+R57C	no signal	0 of 3	0 of 9
Y52I+R57M+D62M	no signal	0 of 3	0 of 9
G26P+G99S	5.7 µM	1 of 3	5 of 9
T28F+N30P	6.2 µM	3 of 3	7 of 9
R57T+F105G+D106E	10 µM	1 of 3	2 of 9
T28S+N30A+S35F	4.8 µM	1 of 3	1 of 9
G26T+Y60L+A102N	no signal	0 of 3	0 of 9
T28V+K65D	23 nM	3 of 3	0 of 9
G26M+F27R+S31G	11 µM	3 of 3	1 of 9
Y32S+K65A	4.3 µM	2 of 3	2 of 9
I34V+S53A+S63K	28 µM	1 of 3	0 of 9
T28K+S31Y+A101C	190 nM	3 of 3	0 of 9
F27N+S31R+I34L	49 µM	1 of 3	1 of 9
I34S+S53I+A101H	no signal	0 of 3	0 of 9
F27I+S53I+F105A	no signal	0 of 3	0 of 9
G26Y+G55E+G61W	1.6 µM	1 of 3	1 of 9
F27I+T28W+T58M	1.6 µM	1 of 3	0 of 9
T28N+N30L+Y60P	no signal	0 of 3	0 of 9
F27V+Y60H+S63F	no signal	0 of 3	0 of 9
G33A+S35H+G55F	no signal	0 of 3	1 of 9
F27G+A102D+F105C	no signal	0 of 3	0 of 9
F59C+G61R+S63C	64 µM	1 of 3	0 of 9
R56D+T58Q+G99V	no signal	0 of 3	0 of 9
F27R+Y52K+D106I	3.2 µM	1 of 3	1 of 9
Y32L+G99S+F105E	27 µM	2 of 3	4 of 9
I34P+Y60I+S63M	no signal	0 of 3	1 of 9
F59C+Y60F+V64N	no signal	0 of 3	0 of 9
G26N+A101F+T104C	180 µM	1 of 3	2 of 9
V50G+G55I+Y60W	36 µM	1 of 3	0 of 9
T28Q+D62T+S63R	720 nM	2 of 3	1 of 9
G26F+L29M+T104A	no signal	0 of 3	0 of 9
T28Y+S31C+V64Y	2.8 µM	3 of 3	6 of 9
Y32P+R57A+T104Y	50 µM	1 of 3	0 of 9
R57K+Y60H+K65S	no signal	0 of 3	0 of 9
G33V+D62W+T104S	36 µM	2 of 3	3 of 9
L29G+F59D+S107N	no signal	0 of 3	2 of 9
L29Q+S53I+F105N	no signal	0 of 3	0 of 9
T28I+G55E+G103F	1.6 µM	1 of 3	0 of 9
Y60E+A102R+F105W	no signal	0 of 3	2 of 9
G33L+I34P+A101F	11 µM	2 of 3	2 of 9
Y52P+D62G+F105T	45 µM	1 of 3	2 of 9
Y32Q+Y60K+D62N	no signal	0 of 3	1 of 9
I34Q+Y52T+F59V	48 µM	2 of 3	2 of 9
G55N+R100Q+F105C	no signal	0 of 3	1 of 9
G26D+N30Q+S35G	no signal	0 of 3	0 of 9
N30C+I34N+V50L	13 µM	1 of 3	0 of 9
T28F+R57V+R100P	no signal	0 of 3	1 of 9
G55A+V64G+T104Y	4.1 µM	1 of 3	2 of 9
F27L+R57G+S63W	no signal	0 of 3	0 of 9

Top 3 of the variants detected in all replicates, tightest first:

{"changes": "T28V+K65D", "Kd (apparent)": "23 nM", "detected": "3 of 3", "control signals": "0 of 9"}
{"changes": "T28K+S31Y+A101C", "Kd (apparent)": "190 nM", "detected": "3 of 3", "control signals": "0 of 9"}
{"changes": "T28Y+S31C+V64Y", "Kd (apparent)": "2.8 µM", "detected": "3 of 3", "control signals": "6 of 9"}

Background: pairings of library AAYL49 with three empty control strains gave a value in 15% of cases (median 11 µM, 5th percentile 680 nM). Values in that range, when seen in few replicates, are hard to tell from nonspecific mating. The control count says in how many pairings with the empty strains this scFv gave a signal.